Assays:
[1] = Spectroscopic characterization in 0.1 M NaOH; assay type: physicochemical; conditions: in 0.1M NaOH(aq)
[2] = Water solubility in PBS relative to 2’,7’-dichlorofluorescein; assay type: physicochemical

- λem [1]: 523 nm
- ε ([1]; at max absorption): 86,000 M^−1cm^−1
- Φfl ([1]; relative to fluorescein): 0.94
- Solubility [2]: 1
Substance: 2’,7’-dichloro-3-carboxyfluorescein [2’,7’-dichloro-3-carboxy-fluorescein, reference compound]

Source: paper PMC8327618 (Journal of the American Chemical Society, 2021)
